Laboratory results published in patent US9517279B2, “2-alkoxy-11-hydroxyaporphine derivatives and uses thereof” (The McLean Hospital Corporation, priority 2010, dated 2016).

Amino acid sequences for entries named in this document (tags omitted).
UniProt P18901, whole entry: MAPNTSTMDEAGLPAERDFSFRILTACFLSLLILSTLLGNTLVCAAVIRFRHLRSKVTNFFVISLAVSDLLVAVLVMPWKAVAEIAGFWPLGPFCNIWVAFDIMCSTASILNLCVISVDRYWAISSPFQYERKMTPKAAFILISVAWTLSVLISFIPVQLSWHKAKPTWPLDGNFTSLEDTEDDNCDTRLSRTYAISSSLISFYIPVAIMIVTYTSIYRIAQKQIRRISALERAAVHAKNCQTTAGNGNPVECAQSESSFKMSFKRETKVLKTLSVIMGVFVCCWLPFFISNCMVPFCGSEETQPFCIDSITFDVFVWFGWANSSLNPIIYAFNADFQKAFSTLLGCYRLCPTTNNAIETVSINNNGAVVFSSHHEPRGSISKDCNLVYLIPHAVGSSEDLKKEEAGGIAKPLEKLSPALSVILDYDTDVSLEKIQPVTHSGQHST

Assays:
[1] = target: T1, D1^high (Rattus norvegicus, UniProt P18901); experiment: Competitive radioreceptor binding, D1 high-affinity state, rat striatum [3H]SCH23390
T1 construct: membrane-containing homogenates of rat corpus striatum tissue; from tissue; host or cells: rat corpus striatum

[2] = target: T2, D1^low (Rattus norvegicus, UniProt P18901); experiment: Competitive radioreceptor binding, D1 low-affinity state, rat striatum [3H]SCH23390
T2 construct: membrane-containing homogenates of rat corpus striatum tissue; from tissue; host or cells: rat corpus striatum

For `CN1CCc2cc(OCCF)cc3c2[C@H]1Cc1cccc(O)c1-3` [11g, R(−)-2-(2-fluoroethoxy)-11-hydroxyaporphine], the “Ki D1^high” value [1] was “No D1^high” and the Ki [2] was 340 ± 44 nM.
